This assay concerns the target human leukocyte LAB TSPO (Homo sapiens, UniProt P30536). The assay is described as follows: Ligand binding affinity to human leukocyte LAB TSPO.

Chains of the proteins cited; added tags and fusions are not shown.
UniProt P30536, whole entry: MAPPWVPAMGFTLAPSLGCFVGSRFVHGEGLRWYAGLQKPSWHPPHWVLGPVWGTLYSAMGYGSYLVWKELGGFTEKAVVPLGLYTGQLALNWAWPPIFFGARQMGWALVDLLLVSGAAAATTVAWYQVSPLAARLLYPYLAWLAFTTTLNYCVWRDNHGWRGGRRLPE

The structures appear in SMILES notation.

Turning to `CCC(C)N(C)C(=O)c1cc2ccccc2c(-c2ccccc2Cl)n1` (stereo not shown) [compound 1, 1-(2-chlorophenyl)-N-methyl-N-(1-methylpropyl)-3-isoquinolinecarboxamide, reference compound], the Ki (commonly the dissociation constant of the complex between target and ligand, obtained from inhibition or displacement) stood at 4 ± 1 nM.

The values above are taken from article PMC4216211 (Journal of Medicinal Chemistry, 2014).
